Laboratory results as given in ChEMBL document CHEMBL4619721, “Design, synthesis & biological evaluation of ferulic acid-based small molecule inhibitors against tumor-associated carbonic anhydrase IX” (Bioorg Med Chem, 2020).

Legend:
[1] = species: Homo sapiens; assay: Selectivity index, ratio of IC50 for human carbonic anhydrase 2 using p-nitrophenyl acetate as substrate to IC50 for human carbonic anhydrase 9 using p-nitrophenyl acetate as substrate
[2] = species: Homo sapiens; assay: Selectivity index, ratio of IC50 for human carbonic anhydrase 2 using p-nitrophenyl acetate as substrate to IC50 for human carbonic anhydrase 5A using p-nitrophenyl acetate as substrate by
[3] = molecular target: T1, Carbonic anhydrase 9 (Homo sapiens, UniProt Q16790)
[4] = molecular target: T1, Carbonic anhydrase 9; remark: listed apart in the source

- Ratio IC50 [1]: 83
- Ratio IC50 [2]: 1.8
- Ka [3]: 2.8 ×10⁸ /M
- deltaH [4]: -4.14 ×10⁴ cal/mol
SMILES: COc1cc(/C=C/C(=O)O)ccc1OCc1cn(-c2cccc([N+](=O)[O-])c2)nn1
